Measurements published in ChEMBL document CHEMBL1143427, “Interactions of ceftobiprole with beta-lactamases from molecular classes A to D” (Antimicrob Agents Chemother, 2007).

What was measured:
[1] = test system: CO/N=C(\C(=O)N[C@@H]1C(=O)N2C(C(=O)[O-])=C(C[N+]3(C)CCCC3)CS[C@H]12)c1csc(N)n1; assay: (§1) Ratio of Kcat to Km of Pseudomonas aeruginosa VIM2 assessed as drug hydrolysis by spectrophotometry
[2] = test system: Nc1nc(/C(=N/O)C(=O)N[C@@H]2C(=O)N3C(C(=O)O)=C(/C=C4\CCN([C@@H]5CCNC5)C4=O)CS[C@H]23)ns1; assay: as §1
[3] = test system: CO/N=C(\C(=O)N[C@@H]1C(=O)N2C(C(=O)[O-])=C(C[N+]3(C)CCCC3)CS[C@H]12)c1csc(N)n1; assay: Activity of Pseudomonas aeruginosa VIM2 assessed as drug hydrolysis by spectrophotometry

Beta-lactamase VIM-2 (Pseudomonas aeruginosa) (from UniProt Q9K2N0)
kcat/Km [1]: 3500 M⁻¹ s⁻¹ | kcat/Km [2]: 330000 M⁻¹ s⁻¹ | Km [3]: 110 µM | kcat [3]: 0.38 s⁻¹
